Yeast mating assay 1: variants of the scFv Ab-14

From the AlphaSeq antibody data of Engelhart et al. 2022 (doi:10.1038/s41597-022-01779-4), copy in the FLAb collection.

All variants were tested on one target, the spike HR2 peptide PDVDLGDISGINAS (SARS-CoV-2).

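Phage display of a naive human antibody library on the peptide gave the parent. In library AAYL50, one, two or three CDR residues were substituted; doubles and triples were drawn at random. AlphaSeq pools MATa yeast showing the antibodies with MATalpha yeast showing the peptide. After mating in shaken culture at 30 °C for 16 h, diploids were selected and their barcode pairs sequenced. Read counts were normalised to the haploid input and turned into Kd by a linear fit to BCL2-family pairs of known affinity, for each replicate. There are three technical replicates.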

Parent scFv Ab-14: VH joined to VL by a (GGGGS)3 linker. Changes lie in the light chain CDRs alone.
VH: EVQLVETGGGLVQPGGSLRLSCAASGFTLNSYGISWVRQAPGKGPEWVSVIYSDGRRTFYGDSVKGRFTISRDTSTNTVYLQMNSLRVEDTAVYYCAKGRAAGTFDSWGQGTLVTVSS
VL: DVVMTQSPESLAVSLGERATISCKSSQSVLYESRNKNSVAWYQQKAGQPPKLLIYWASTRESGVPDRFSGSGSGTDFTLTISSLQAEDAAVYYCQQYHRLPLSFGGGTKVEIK

Variants are written as CDR1, CDR2 and CDR3 of the light chain (limits as in the source). Parent: KSSQSVLYESRNKNSVA, WASTRES, QQYHRLPLS.
The read-out is the apparent dissociation constant on a log10 scale (nM): the lower, the stronger.
Where no diploid with the target was found in that replicate, the entry reads "n.d.": below detection, most likely a poor binder, though not proof of it.
Three control strains display no target. For library AAYL50, 18% of the pairings with them gave a signal, with a median of 4.19 and one signal in twenty below 2.99, so weak values seen in few replicates may be background. Also given: how often the same scFv was detected with the empty control strains, with their mean in brackets.

CDR-L1	CDR-L2	CDR-L3	log10 Kd, replicates	control signals
KSPQSTLYEQRNKNSVA	WASTRES	QQYHRLPLS	1.39 1.63 1.63	3 of 9 (4.23)
PSSQDVLYESRNKNSVA	WASTRES	QQIHRLPLS	n.d. n.d. n.d.	0 of 9
KSSQFVLYESRNKNSAD	WASTRES	QQYHRLPLS	n.d. n.d. n.d.	1 of 9 (3.63)
KSSQSVLYESRNKNSVM	WASTRES	QQYHRLPIS	5.26 n.d. n.d.	3 of 9 (3.58)
NSSQSVLYESRNKNSHA	WASKRES	QQYHRLPLS	n.d. n.d. n.d.	3 of 9 (3.72)
KSSQPVLYESRNKNSVA	WASTREY	QQYHRLPSS	1.76 1.84 2.05	3 of 9 (3.68)
HSSQSVLYESRNKNSVA	WASTREL	QQEHRLPLS	0.32 1.13 0.34	0 of 9
KSSQSVLYEDRNKNSVA	WISTRES	QQYHRPPLS	2.52 2.10 n.d.	1 of 9 (3.63)
KSSQSVYYESRNKNSVA	WASLRES	QQYHRLPLQ	2.32 2.38 3.27	0 of 9
CMSQSVLYESRNNNSVA	WASTRES	QQYHRLPLS	0.30 0.48 0.32	3 of 9 (4.31)
KSSQSVLYKSRNKNSVA	WASERMS	QQYHRLPLS	1.06 1.28 1.24	2 of 9 (3.21)
KSSQSVMYESRNKNHVA	WASTYES	QQYHRLPLS	n.d. n.d. n.d.	0 of 9
KSSQSILYESRNKNSVA	WASTIES	QQYHRLPLF	3.01 2.89 3.55	2 of 9 (5.09)
KSSQSWLYESRNKNSVA	WASTFES	QQMHRLPLS	n.d. n.d. n.d.	3 of 9 (4.05)
KSTQSVLYESRSKNSVA	WASTRES	QQYHRLPFS	2.18 1.69 1.75	0 of 9
KSSQSVLYESRNKNPVA	WASTRTS	QQYHRLPLS	1.86 1.49 1.94	0 of 9
KSSQSVLYEQRNKNSVF	WAPTRES	QQYHRLPLS	n.d. 3.37 6.06	1 of 9 (3.59)
HSSQSNLYESRNKNSVA	WASTRES	VQYHRLPLS	n.d. n.d. n.d.	2 of 9 (3.91)
KSSQSVLYESRNKNSVA	WASTRES	QCYHRLPLS	n.d. n.d. n.d.	1 of 9 (4.12)
KSSQSVLYESRNKNSVA	WASTKES	EQYHRLPES	1.49 1.81 1.65	0 of 9
KSSYSVLYESRNKNSVA	WASTRES	QMYHRDPLS	0.92 1.29 0.81	0 of 9
KSSQSVLYESRFKNNVA	WASTRES	QQYHTLPLS	2.12 2.42 1.91	1 of 9 (2.54)
KSSQSVLHESRNKNSVA	WQETRES	QQYHRLPLS	1.37 1.35 1.38	0 of 9
KSSQSVLYEARNKNSVA	WASTRSS	QQYRRLPLS	2.81 2.28 2.40	2 of 9 (3.61)
KSSQSVLYESRNKYSSA	WASTRES	QQYMRLPLS	n.d. 5.17 n.d.	2 of 9 (3.39)
KSSQSVLYESRNKNSVA	WASTEES	QQYHRLPLS	n.d. n.d. 3.45	1 of 9 (4.13)
KSQQSVLYESRNKNSFA	WTSTRES	QQYHRLPLS	3.09 2.91 3.19	4 of 9 (4.66)
KSSQSVLAESTNKNSVA	WASTRES	QAYHRLPLS	0.09 0.38 0.20	1 of 9 (5.53)
KSSQSVLYESINKNSVA	WASQRNS	QQYHRLPLS	0.31 0.69 0.71	1 of 9 (5.08)
KSSQSVLYEKRNKNSVA	WAFTRES	QQYHVLPLS	n.d. n.d. n.d.	0 of 9
KSSQWVLYEHRNKNSVA	WASTRES	QQYMRLPLS	2.30 2.07 2.07	1 of 9 (4.13)
KSSMSVLYESRNKNSYA	WASTRES	QQYHRNPLS	n.d. n.d. 4.59	3 of 9 (3.73)

The first 4 entries again:

CDR-L1	CDR-L2	CDR-L3	log10 Kd, replicates	control signals
KSPQSTLYEQRNKNSVA	WASTRES	QQYHRLPLS	1.39 1.63 1.63	3 of 9 (4.23)
PSSQDVLYESRNKNSVA	WASTRES	QQIHRLPLS	n.d. n.d. n.d.	0 of 9
KSSQFVLYESRNKNSAD	WASTRES	QQYHRLPLS	n.d. n.d. n.d.	1 of 9 (3.63)
KSSQSVLYESRNKNSVM	WASTRES	QQYHRLPIS	5.26 n.d. n.d.	3 of 9 (3.58)